# scFv variants of Ab-14 (heavy chain) against a SARS-CoV-2 spike peptide

Antigen: PDVDLGDISGINAS, a 14-residue peptide of the SARS-CoV-2 spike HR2 region.

Parent: Ab-14, a human scFv built as VH, the linker GGGGSGGGGSGGGGS, VL. Only the CDRs of the heavy chain vary.
VH: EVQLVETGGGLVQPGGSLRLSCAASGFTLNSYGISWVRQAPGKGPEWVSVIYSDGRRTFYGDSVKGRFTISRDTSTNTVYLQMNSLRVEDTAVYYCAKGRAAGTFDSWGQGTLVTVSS
VL: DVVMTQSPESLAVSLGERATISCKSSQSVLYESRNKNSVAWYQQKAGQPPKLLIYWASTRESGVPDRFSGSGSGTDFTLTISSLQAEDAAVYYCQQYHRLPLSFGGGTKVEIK

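Library AAYL49 holds single substitutions and randomly drawn double and triple substitutions in the CDRs. The scFvs were displayed on barcoded MATa yeast, the peptide on MATalpha yeast. Pairs that bind mate more often; barcode pairs of the diploids are counted by sequencing. Scores were corrected for input abundance and mapped to Kd with protein pairs of known affinity run in the same pool. Mating was done three times.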

Each variant is given by its three heavy chain CDRs, as the data file delimits them; those of the parent are GFTLNSYGIS, VIYSDGRRTFYGDSVK, GRAAGTFDS. This list gathers variants with a substitution at S63 (VH, numbered from residue 1). Affinities are written as log10 Kd with Kd in nM; a lower number is a better binder. Averages over replicates are reported, and they cover detected replicates only. An entry "n.d." has no value in the source: the pair was not observed among the diploids in that replicate. This suggests poor binding but is not conclusive. For reference, the parent read 0.65 as the reference entry and 4.11 (one replicate of three) as a member of this library.

CDR-H1	CDR-H2	CDR-H3	log10 Kd (nM) by replicate	mean log10 Kd (nM)
GFTLNSYGIS	VIYSDGRRTFEGDCVK	GRAAGTFNS	n.d. / n.d. / n.d.	n.d.
GGTLNSYGIS	VIYSDGRRTFYGDFVK	GRAAGMFDS	n.d. / n.d. / n.d.	n.d.
GFGLNSYGIS	VIYHDGRRTFYGDQVK	GRAAGTFDS	1.59 / 1.64 / 1.69	1.64
GFTLNSYGIS	VIYSDGRRTFYGDDVK	GRAAGTFDG	1.11 / 1.11 / 0.83	1.02
GFTLRSYGIS	VIYQDGRRTFYGDVVK	GRAAGTFDS	n.d. / n.d. / n.d.	n.d.
GGTLNSYGIS	VIYSDGRWTFYGDTVK	GRAAGTFDS	n.d. / 4.85 / n.d.	4.85
GFTLNSYGIS	VIYSDGRRTFYGDIVG	GFAAGTFDS	n.d. / n.d. / n.d.	n.d.
GFTLNMYGIS	VIYSDGRRTFYGDLVK	GRAAGTFDY	n.d. / n.d. / n.d.	n.d.
GFTLNSYGIS	VIYSDGRRTFYGDTVK	GRAAGLFDS	2.09 / 2.11 / 2.45	2.22
GFLLNSYGIS	VIYSDGRRTFYGDTVK	GRAAGTFDS	1.27 / 1.44 / 1.36	1.36
MFTLNSYGIS	VIYSDGRRTFYGDAVK	GNAAGTFDS	2.85 / n.d. / 2.65	2.75
GFTLNSMGIS	VIYSDGRRTFYNDKVK	GRAAGTFDS	n.d. / n.d. / n.d.	n.d.
GFTLNSYGIS	VIKSDGRRTFYGDIVK	GHAAGTFDS	n.d. / 3.34 / 4.14	3.74
GFTLNSYGIS	VLYSDGRRTFYGDPVK	GRAAGTFDS	n.d. / n.d. / n.d.	n.d.
GFTLNSYEIS	VIYSDGRRTAYGDNVK	GRAAGTFDS	n.d. / n.d. / n.d.	n.d.
GFTLNFYGIS	VIYSDGRRTFYRDQVK	GRAAGTFDS	3.28 / 2.40 / 3.36	3.01
GFTLNSLAIS	VIYSDGRRTFYGDEVK	GRAAGTFDS	4.43 / 4.06 / 3.94	4.14
GFTLNSYGIS	VIYSDGRRTFYGDEVK	GRAATTFDS	n.d. / n.d. / n.d.	n.d.
GFTLNSYGIS	VIYSDGRRTFYGDQVK	GFAAGDFDS	3.92 / n.d. / n.d.	3.92
GFTLNSYGIS	VIYSDGRRTFYGDHVK	GRAATTFFS	n.d. / n.d. / n.d.	n.d.
GFTLNSYGIS	VIYSDGRRTFYGDEVK	GRAAGTFDS	1.44 / 1.27 / 1.76	1.49
GYTLNSYGIS	VIYSDGRRTFYGDGNK	GRAAGTFDS	3.88 / n.d. / n.d.	3.88
GFTLNSYGIL	VIYSDGRRTFYGDPVK	GRAAGTFDR	n.d. / 3.97 / n.d.	3.97
GFTLHSYGIS	VIYSDGRRTFYGDWVK	GRAAYTFDS	n.d. / n.d. / n.d.	n.d.
GFFLNSYGIS	VRYSDGRRTFYGDPVK	GRAAGTFDS	4.81 / 4.63 / 4.50	4.65
GFTLNYYGIS	VYYSDGRRTFYGDVVK	GRAAGTFDS	n.d. / n.d. / n.d.	n.d.
GFTLNSYGIS	QIDSDGRRTFYGDKVK	GRAAGTFDS	3.78 / n.d. / n.d.	3.78
GFTLNSYGIS	VIYVDGRRHFYGDGVK	GRAAGTFDS	4.09 / 4.29 / 5.11	4.50
GFTLSSYGIS	VIYSDGRRTFYGDRVK	GRAAGNFDS	2.24 / 2.08 / 2.35	2.22
GYTLNSYGIS	VIYSDGNRTFYGDMVK	GRAAGTFDS	2.34 / 3.15 / 4.21	3.24
GKTLNSYGIS	VIYSDGRRTFYGDGVK	GRAARTFDS	n.d. / n.d. / n.d.	n.d.
GFTLNSYGIS	VIYSDGRRTFYCDHVK	GRAAGTFDS	1.78 / 1.67 / 1.56	1.67
GFTLNSYGIS	VIYSDGRRTFYGDMVK	GVAAGSFDS	n.d. / n.d. / n.d.	n.d.
GFTLNVYGIS	VIYSDGRRTFYGDRVK	PRAAGTFDS	1.16 / 2.33 / n.d.	1.75
GFTLNSYGIS	VIHSDGRRTFYGDVVK	GRAAGTFDS	n.d. / n.d. / n.d.	n.d.
GFTNNSYGIS	VIYSDGRRTFYGDMVM	GRAAGTFDS	n.d. / n.d. / n.d.	n.d.
GFTLNSYGIS	VIYSDGMRTFYGDHVK	GRAAGTFDS	1.44 / 1.43 / 2.11	1.66
GFTLNSYGIS	VIYSDGRRTFEGDKVK	GRAAGHFDS	5.81 / 3.58 / 4.29	4.56
GFTLNSYGIS	VIYSDGWRTFYGDKVK	GRAHGTFDS	n.d. / n.d. / n.d.	n.d.
GPTLNSYGIS	VIYSDGRRTFYGDYVK	GRAAGTFDS	n.d. / n.d. / n.d.	n.d.
GFPLNSYGIS	VIYSDGRRTFYLDYVK	GRAAGTFDS	n.d. / 4.10 / 4.58	4.34
GFTLNSYGIS	VIYSDGRRTFYGDGKK	GRAYGTFDS	n.d. / n.d. / n.d.	n.d.
GFTLNSYGIS	VIYSDGRCTFYGDVVK	GRAAGTFDR	n.d. / n.d. / n.d.	n.d.
GFTLNSYGIS	VRYSDGRRTMYGDYVK	GRAAGTFDS	n.d. / n.d. / n.d.	n.d.
GFTLNDYGIS	VIYSLGRRTFYGDQVK	GRAAGTFDS	n.d. / 4.02 / 5.17	4.60
GFTLNSYGIS	VIYSYGRRTFYGDGVK	QRAAGTFDS	n.d. / 2.46 / n.d.	2.46

Top 3 of the variants detected in all replicates, tightest first:

CDR-H1,CDR-H2,CDR-H3,log10 Kd (nM) by replicate,mean log10 Kd (nM)
GFTLNSYGIS,VIYSDGRRTFYGDDVK,GRAAGTFDG,1.11 / 1.11 / 0.83,1.02
GFLLNSYGIS,VIYSDGRRTFYGDTVK,GRAAGTFDS,1.27 / 1.44 / 1.36,1.36
GFTLNSYGIS,VIYSDGRRTFYGDEVK,GRAAGTFDS,1.44 / 1.27 / 1.76,1.49

As a blank, each scFv also met three strains without target: over library AAYL49, 15% of these pairings were detected, typically at 4.06 and seldom below 2.83.

Source: Engelhart et al. 2022 (doi:10.1038/s41597-022-01779-4), MIT Lincoln Laboratory and A-Alpha Bio; data file from the FLAb repository.